Tests used:
[1] = system: HER2-positive breast cancer cell lines (BT474 and SKBR3), sensitive; settings: following trastuzumab exposure, sensitive cells; cited from earlier work
[2] = system: HER2-positive breast cancer cell lines (BT474 and SKBR3), trastuzumab resistant; settings: following trastuzumab exposure, cited from earlier work
BT474 tumor = experiment: BT474 model, dose response study of combinations (Example 10); type: in vivo; settings: Group 2: trastuzumab 15 mg/kg, ip, biwk×3

## trastuzumab: recombinant DNA-derived humanized monoclonal antibody (IgG1 kappa) that binds the extracellular domain of HER2
[1]
  G0/G1 arrest: 84%
[2]; resistant cells
  G0/G1 arrest: 68%
[2]
  cells in S-phase: 14%
BT474 tumor
  Difference from control: 36.6
  Median Total Time to Endpoint: 64.8 days
  Regressions: PR (partial regressions): 0
  Regressions: TFS (tumor free survivors): 0
